The assay has as its target Mu-type opioid receptor (Rattus norvegicus, UniProt P33535). The assay is described as follows: Binding affinity of compound for Opioid receptor mu 1 was determined using [3H]DAMGO as radioligand from rat brain tissue. Put shortly:
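Competitive binding assays. Mu and delta receptors came from rat brain membranes. Kappa receptors came from guinea pig caudate membranes. Test compounds displaced the receptor-selective radioligand.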

Amino acid sequences for entries named in this document (tags omitted).
UniProt P33535, whole entry: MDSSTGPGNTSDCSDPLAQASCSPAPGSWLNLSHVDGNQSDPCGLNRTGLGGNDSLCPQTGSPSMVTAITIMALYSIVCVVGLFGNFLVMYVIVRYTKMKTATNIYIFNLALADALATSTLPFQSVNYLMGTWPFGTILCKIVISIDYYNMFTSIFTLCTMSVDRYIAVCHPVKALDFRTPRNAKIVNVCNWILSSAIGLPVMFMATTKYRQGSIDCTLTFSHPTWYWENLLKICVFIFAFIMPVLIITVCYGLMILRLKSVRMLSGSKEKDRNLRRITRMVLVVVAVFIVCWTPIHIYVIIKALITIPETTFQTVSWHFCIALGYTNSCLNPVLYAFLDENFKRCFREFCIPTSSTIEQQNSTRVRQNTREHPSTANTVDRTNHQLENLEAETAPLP

Here are results for one compound from ChEMBL document CHEMBL1148443, “Importance of phenolic address groups in opioid kappa receptor selective antagonists” (J Med Chem, 2004).

Molecules are shown by their SMILES.

Usually Ki stands for a measure of affinity in units of concentration, obtained from inhibition or displacement.

`Oc1ccc2c3c1O[C@H]1c4[nH]c5c(c4C[C@@]4(O)[C@@H](C2)N(CC2CC2)CC[C@]314)C[C@@]1(O)[C@H]2Cc3ccc(O)c4c3[C@@]1(CCN2CC1CC1)[C@H]5O4` [NORBINALTORPHIMINE] showed a Ki of 8.3 nM.
